From patent publication US9789115B2 (priority 2010, dated 2017)

What was measured:
[1] = system: operated rats (plantar incision)

Structure (SMILES): Cc1cc(OCCN2CCOCC2)nn1-c1ccc2ccccc2c1 [compound n° 63, 4-{2-[5-Methyl-1-(naphthalen-2-yl)-1H-pyrazol-3-yloxy]ethyl}morpholine]
- enhancement of allodynia induced by perioperative fentanyl ([1]; sigma ligand 20 mg/kg on day 0, paradigm 2, fentanyl 0.16 mg/kg x 3): strongly reduced
- enhancement of allodynia induced by perioperative sufentanil ([1]; sigma ligand 20 mg/kg on day 0, paradigm 2, sufentanil 0.05 mg/kg x 3): strongly reduced
- allodynia secondary to both surgery and opioid (Remifentanil) use ([1]; sigma ligand 40 and 80 mg/kg, paradigms 1 and 2): inhibits allodynia
- enhancement of allodynia induced by remifentanil administration (naïve rats; i.p. coadministration, remifentanil 0.3 mg/kg, sigma ligand 20, 40 and 80 mg/kg): reduces dose-dependently
- remifentanil-induced hyperalgesia (OIH) (naïve rats; sigma ligand 20 and 40 mg/kg, FIG. 7): inhibitory effect on OIH is clear
